Molecular target: dopaminergic (D2) receptors (Rattus norvegicus, UniProt P61169)
Assay: biochemical
Format: binding
Conditions: striatal rat brain homogenates, ^3H-spiperone, 37° C., 15 minutes; read-out: 3H-Spiperone Displacement IC50
Description: Rats (150±10 g; Charles River) were decapitated, the corpus striatum dissected out and frozen on dry ice. The tissues were pooled and stored at -80° C. until used. Homogenates (Brinkmann Polytron) of the corpus striatum in cold HEPES.KOH buffer (final pH=7.4) were centrifuged at 39,000×G. The supernatant was discarded and the pellets were re-suspended in HEPES.KOH buffer and re-centrifuged as above.
Tests to determine the Inhibitory Concentration50 (IC50) of the compounds of Formula I and reference compounds versus ^3 H-spiperone were conducted as follows. Tubes containing either 100 μL of buffer mixture (for total binding), 100 μL of buffer mixture plus 100 μL of 10^-4 M D(+)-butaclamol (for blanks, i.e. non-specific binding), or 100 μL of buffer mixture containing 10^-7, 10^-6 or 10^-5 M test compound were prepared. To each were added 100 μL of a solution of ^3 H-spiperone (New England Nuclear) in buffer mixture (2000 c.p.m. in the incubation mixture) and 800 μL of the striatal tissue suspension. The tubes were then diluted to 1 mL with buffer mixture, giving a final concentration of 10^-8, 10^-7 or 10^-6 M test compound and approximately 100 pM ^3 H-spiperone. The samples were incubated at 37° C. for 15 minutes, filtered in vacuo on glass fiber filters and counted by liquid scintillation spectrometry. […] All samples were run in duplicate.

Protein sequences, listed by entry. Tags and fused reporters are not part of them.
UniProt P61169, whole entry: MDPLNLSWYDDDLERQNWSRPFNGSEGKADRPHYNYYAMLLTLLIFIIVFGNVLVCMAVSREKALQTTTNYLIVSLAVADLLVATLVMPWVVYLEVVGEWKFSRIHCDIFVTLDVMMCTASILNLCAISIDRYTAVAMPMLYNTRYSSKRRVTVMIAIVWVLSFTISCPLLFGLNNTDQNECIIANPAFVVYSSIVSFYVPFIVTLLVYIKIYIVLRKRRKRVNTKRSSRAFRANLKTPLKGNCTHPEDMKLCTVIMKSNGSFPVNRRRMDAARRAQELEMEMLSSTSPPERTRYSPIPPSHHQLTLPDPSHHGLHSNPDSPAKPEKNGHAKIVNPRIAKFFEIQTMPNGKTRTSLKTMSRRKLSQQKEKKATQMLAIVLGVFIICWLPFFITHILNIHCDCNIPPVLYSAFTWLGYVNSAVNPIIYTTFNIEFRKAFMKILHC

CCN(CC)CCNC(=O)c1cc(Cl)c(N)cc1OC [Metoclopramide, reference compound]
IC50: 310 nM

Reference: patent US4820715A, “Anti-emetic quinuclidinyl benzamides” (Bristol-Myers Company, priority 1987, dated 1989)
